Where “and” joins values, the source holds several entries; their conditions need not be identical. Identical values can stand only once. This is a selection; strong and weak results do not stand in their true shares. Calls of active or inactive are those of the source. Calls come from the whole dose curve; as a rule, active = well fitted inhibition curve with a large enough effect; inconclusive = small, poorly fitted or top-dose-only effect, or effect the other way; inactive = flat fitted curve, though single readings scatter.
These compounds were tested against Ubiquitin carboxyl-terminal hydrolase 2 (Homo sapiens) (UniProt O75604) (assay: qHTS Assay for Inhibitors of Ubiquitin-specific Protease USP2a Using CHOP2 as the Reporter). Conditions: USP2 core, Ub-CHOP2 coupled fluorogenic reporter, 485/531; at 38.3 µM (top of the series).
Excerpt: NIH Molecular Libraries Screening Centers Network [MLSCN] NIH Chemical Genomics Center [NCGC] MLSCN Grant: XO1-MH079852-01 PI Name: Nicholson, Ben. Progenra Inc, Malvern, PA NCGC Assay Overview: Homeostasis of cellular proteins is maintained through a combination of synthesis and degradation. The pathway that accounts for the majority of protein degradation is the ubiquitin-proteasomal pathway. Ubiquitin (Ub) is highly conserved in all cells and the generation of a multi-Ub chain typically targets proteins for degradation by the proteasome. However, ubiquitination is highly reversible and dynamic. Deubiquitination, the reverse process, is catalyzed through the action of enzymes referred to as isopeptidases or deubiquitinating enzymes (DUBs). This group of enzymes is collectively responsible for maintaining adequate pools of free ubiquitin and regulating the ubiquitination status of cellular proteins. The class of DUBs referred to as the ubiquitin-specific proteases (USP) family functions endoproteolytically to cleave Ub chains from a wide range of protein substrates. USP2a deubiquitinates fatty acid synthase (FASN) which has recently been identified as an emerging oncology target. To identify inhibitors of USP2a a cell-free assay was employed. […] The reporter enzyme chosen is an enterokinase called CHOP2, which is activated when the Ub is cleaved by USP2. The free and now activated reporter can subsequently act on its reporter substrate. Thus, this coupled assay gives a fluorescent read-out at excitation/emission wavelengths of 485/531. The assay was developed by Progenra, Inc. and has been licensed for sale by LifeSensors, Inc. as Ub-CHOP2-Reporter-Kit (#PR1101).
NCGC Assay Protocol Summary: The assay buffer, prepared fresh at the day of the assay, contains 20mM Tris-HCl pH 8.0, 2mM CaCl2, 2mM beta-Mercaptoethanol, 0.05% CHAPS. 3ul of 20nM (10nM final) USP2 core, which is stored on ice, is dispensed into a medium-binding black solid Kalypsys 1,536 well plate using the Kalypsys dispenser. The assay plate is then pinned with 23nL compound with the Kalypsys pintool in columns 5-48. The controls are pinned as follows: column 1 two-fold dilutions of 2M NEM in duplicate; column 2 2M NEM (final concentration 38.2mM); column 3&4 DMSO. The assay plate is incubated at RT for 30min. Subsequently, 1.5uL of 100nM (25nM final) Ub-CHOP2 and 1.5uL of 100nM (25nM final) Reporter Substrate (both stored on ice and protected from light) were dispensed into the plate using the Kalypsys dispenser. Plates were read after 60min RT incubation on a ViewLux (Perkin Elmer) plate reader using the following wavelengths Ex 485nm /Em 531nm. Data were normalized to the to AC100 inhibition (NEM). Concentration-response curves were fitted to the normalized data and the concentration-response curves were then classified based on curve quality (r2), response magnitude and degree of measured activity. The time zero reading was used to flag fluorescence artifacts. Keywords: ubiquitination, deubiquitination, proteases, profluorescent, MLSMR, MLPCN, NIH Roadmap, qHTS, NCGC

The chains behind the UniProt entries cited, without tags or fusion partners. Where a name states a change or a piece, a line headed by the entry shows the natural chain unless it says otherwise.
UniProt O75604: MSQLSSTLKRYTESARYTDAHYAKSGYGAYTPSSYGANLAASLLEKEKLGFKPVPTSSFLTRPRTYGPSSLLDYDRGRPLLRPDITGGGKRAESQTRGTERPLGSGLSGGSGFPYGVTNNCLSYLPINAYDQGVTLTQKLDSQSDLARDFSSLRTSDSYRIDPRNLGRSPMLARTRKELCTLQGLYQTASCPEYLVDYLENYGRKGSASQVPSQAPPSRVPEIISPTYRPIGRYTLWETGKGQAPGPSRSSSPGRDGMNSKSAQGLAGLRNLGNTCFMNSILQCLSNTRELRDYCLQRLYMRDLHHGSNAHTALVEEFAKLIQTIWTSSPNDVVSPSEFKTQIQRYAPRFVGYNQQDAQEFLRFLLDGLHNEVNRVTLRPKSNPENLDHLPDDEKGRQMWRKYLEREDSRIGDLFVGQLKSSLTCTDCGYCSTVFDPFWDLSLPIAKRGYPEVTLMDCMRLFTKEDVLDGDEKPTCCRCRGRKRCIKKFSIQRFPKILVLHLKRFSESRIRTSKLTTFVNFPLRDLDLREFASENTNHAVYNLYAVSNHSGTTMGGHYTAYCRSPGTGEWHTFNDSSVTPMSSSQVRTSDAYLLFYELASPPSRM

Structure (SMILES) | activity change, negative = inhibition
ClCCSc1nnc(-c2cccnc2)o1 | inactive: 6.2%
Cc1ccc2nc3c(c(C)c2c1)CC(C(Cl)Cl)S3 (stereo unspecified) | inactive: 3%
Cc1ccc(OP(=O)(Nc2ccc([N+](=O)[O-])cn2)Oc2ccc(C)cc2)cc1 | inactive: 0.934%
O=[As](O)(c1ccc(O)cc1)c1ccccc1O | inactive: 1.66%
C[As](=O)(O)c1cccc(C(=O)O)c1 | inactive: 3.6%
COc1cc(C(=O)NCC2(N3CCOCC3)CCCCC2)ccc1OCC(C)C | inactive: -8.78%
CCN(N=Nc1nonc1N)c1nonc1N | inactive: 2.59%
Nc1cccc2ccc([As](=O)(O)O)cc12 | inactive: 2.82%
O=[N+]([O-])c1cc([N+](=O)[O-])c(CCN2CCOCC2)c([N+](=O)[O-])c1 | inactive: 3%
Cc1cc(SC(NC(=O)c2ccc(F)cc2)C(Cl)(Cl)Cl)ncn1 (stereo unspecified) | inactive: -0.66%
CCOP(=O)(Nc1ccccc1)OCC | inactive: 0.18% and inactive: 0.738%
Cc1ccc(NP(=O)(Oc2ccccc2F)Oc2ccccc2F)nc1 | inactive: 9.68%
CC(=O)Nc1ccc([As](=O)(O)O)cc1 | inactive: 5.15%
O=C(O)c1ccccc1[As](=O)(O)O | inactive: 1.78%
O=P(Nc1nc2ccc(Cl)cc2s1)(c1ccccc1)c1ccccc1 | inactive: -0.713%
Nc1cc(N)c2nonc2c1[N+](=O)[O-] | inactive: -0.511%
CC(C)CC(=O)NC(Sc1ccc(Cl)cc1)C(Cl)(Cl)Cl (stereo unspecified) | inactive: 0.513%
Oc1ccccc1CNc1ccccn1 | inactive: 4.22%
O=C(NC(Sc1ccncn1)C(Cl)(Cl)Cl)c1ccccc1 (stereo unspecified) | inactive: -1.59%
Cc1c2non([O-])c-2c(C)[n+](=O)[n+]1[O-] | inactive: -3.65%
COc1ccccc1OP(=O)(Nc1ccc(C)cn1)Oc1ccccc1OC | inactive: -0.347%

Structure (SMILES) | activity change, negative = inhibition
Cc1ccc(OP(=O)(Nc2nccs2)Oc2ccc(C)cc2)cc1 | inactive: -0.168%
CN1CCCC(OC(=O)C(c2ccccc2)c2ccccc2)C1 (stereo unspecified) | inactive: -0.165%
Clc1ccc(Cl)c(NC2=NCC(CBr)S2)c1 (stereo unspecified) | inactive: 0.0188%
NC(=O)c1cc([N+](=O)[O-])cc([N+](=O)[O-])c1N | inactive: -0.256%
CN(C(=O)Cc1ccc(Cl)c(Cl)c1)[C@H]1CCCC[C@H]1N1CCCC1 | inactive: 0.969%
Cc1ccc(N/C(=N/P(=O)(N2CCOCC2)N2CCOCC2)N2CCOCC2)cc1 | inactive: 3.26%
CC(C)=N/N=C(\N)N[N+](=O)[O-] | inactive: 3.52%
CN(C)C(=O)OCCc1n(C)cc[n+]1C | inactive: 3.94%
CC1CCN(C(=O)Oc2c(Cl)cc(Cl)c3cccnc23)CC1 | inactive: 2.37%
Nc1ccc([As](=O)(O)c2ccc(N)cc2)cc1 | inactive: 0.783%
C[N+]1=C2C=CC=CC=C2SC12C([N+](=O)[O-])=CC([N+](=O)[O-])=C[C-]2[N+](=O)[O-] (stereo unspecified) | inactive: 3%
CCN(/C(=N/P(=O)(N1CCOCC1)N1CCOCC1)N1CCOCC1)c1ccc(OC)cc1 | inactive: 1.56%
CC(=O)N1C2C3N(C(C)=O)C1C1N(C(C)=O)C(C(N1C(C)=O)N3C(C)=O)N2C(C)=O | inactive: 0.895%
O=[N+]([O-])c1cccc2n[nH]nc12 | inactive: 5.24%
Cc1ccc(NP(=O)(Oc2ccccc2)Oc2ccccc2)nc1 | inactive: 0.976%
O=[N+]([O-])c1cc([N+](=O)[O-])c(CCNc2ccccc2)c([N+](=O)[O-])c1 | inactive: 3.25%
CCc1nc2c(n1)c1c(non1O)c1c2no[n+]1[O-] | inactive: 3.48%
COc1ccc(C2=NCC(CBr)S2)cc1 (stereo unspecified) | inactive: -2.97%
O=[N+]([O-])c1cccc(NC2=NCC(CBr)S2)c1 (stereo unspecified) | inactive: -1.63%
O=C(O)CNc1ccc([As](=O)(O)O)cc1 | inactive: 0.33%
CC(C)(C)C(=O)NC(Sc1ccncn1)C(Cl)(Cl)Cl (stereo unspecified) | inactive: 1.34%

Structure (SMILES) | activity change, negative = inhibition
O=[N+]([O-])c1ncn(CCn2ncnc2[N+](=O)[O-])n1 | inactive: 5.19%
O=C(Nc1cc([As](=O)(O)O)ccc1O)c1ccccc1 | inactive: 0.421%
C(Cc1nn[nH]n1)Cc1nn[nH]n1 | inactive: 0.315%
Nc1ccc([As](=O)(O)c2ccc([N+](=O)[O-])cc2)cc1 | inactive: 0.244%
O=C(OC1CN2CCC1CC2)c1cccc(Cl)c1 (stereo unspecified) | inactive: 0.623%
CC(=O)NC(SC(=S)N(C)C)C(Cl)(Cl)Cl (stereo unspecified) | inactive: 0.735%
O=[N+]([O-])c1ncn(CCn2cnc([N+](=O)[O-])n2)n1 | inactive: 1.53%
O=[N+]([O-])c1ccc(O)c(/C=N/Nc2ccc([N+](=O)[O-])cc2[N+](=O)[O-])c1 | inactive: -0.895%
O=[As](O)(c1ccccc1)c1ccc(O)cc1 | inactive: 1.25%
O=P(Nc1nc2ccccc2s1)(c1ccccc1)c1ccccc1 | inactive: 2.95%
C[C@H]1OP(=O)(Oc2ccccc2)[C@H](O)[C@H](O)[C@H]1N=[N+]=[N-] (stereo partly specified) | inactive: 2.59%
CN(C)C1(CNC(=O)c2ccc(Cl)c(S(N)(=O)=O)c2)CCCCC1 | inactive: 2.97%
O=P(Nc1ccccn1)(c1ccc(Br)cc1)c1ccc(Br)cc1 | inactive: -5.34%
c1nnnn1CCn1cnnn1 | inactive: -1.63%
O=P(Nc1nccs1)(c1ccccc1)c1ccccc1 | inactive: -4.44%
CC(C)C(=O)NC(Sc1ccccc1)C(Cl)(Cl)Cl (stereo unspecified) | inactive: 2.76%
CC(=O)Nc1ccc([As](=O)(O)O)c(O)c1 | inactive: -1.03%
CC(=O)Nc1ccc(Oc2c([N+](=O)[O-])cc([N+](=O)[O-])cc2[N+](=O)[O-])cc1 | inactive: -0.949%
CC(=O)c1ccc(N2CC2c2ccncc2)cc1 (stereo unspecified) | inactive: 3.61%
Cc1ccccc1CN(C)C(=O)COC(=O)C(O)(c1ccccc1)c1ccccc1 | inactive: -6.16%
C[C@H]1OP(=O)(Oc2ccccc2)C[C@@H]2O[C@@H]21 (stereo partly specified) | inactive: 0.0696%

Structure (SMILES) | activity change, negative = inhibition
C[C@@H]1C=CCP(=O)(Oc2ccccc2)O1 (stereo partly specified) | inactive: -0.334%
CC(C)(C)C(=O)NC(Sc1ccccc1)C(Cl)(Cl)Cl (stereo unspecified) | inactive: 2.05%
O=P1(Nc2nc3ccc(Cl)cc3s2)COc2ccccc2O1 (stereo unspecified) | inactive: 0.174%
CCOc1ccc(C2=NCC(CBr)S2)cc1 (stereo unspecified) | inactive: 0.644%
CC(NC(=O)COC(=O)C(O)(c1ccccc1)c1ccccc1)c1ccccc1 (stereo unspecified) | inactive: 1.57%
Cc1ccccc1OP(=O)(Nc1ccccn1)Oc1ccccc1C | inactive: -1.43%
O=c1c2cc([N+](=O)[O-])ccc2[nH]c2c([N+](=O)[O-])cc([N+](=O)[O-])cc12 | inactive: -0.629%
CN(C)C(=O)Oc1noc2ccccc12 | inactive: 0.433%
COC(=O)c1cc2c(s1)N=C(c1ccccc1)N(C)P2(=O)N1CCOCC1 (stereo unspecified) | inactive: -0.497%
CC(=O)NC(SC(=S)N(CC(C)C)CC(C)C)C(Cl)(Cl)Cl (stereo unspecified) | inactive: 9.85%
Cc1ccc(OP(=O)(Nc2ccccn2)Oc2ccc(C)cc2)cc1 | inactive: -3.43%
O=C(OC1CN2CCC1CC2)c1ccccc1 (stereo unspecified) | inactive: -7.54%
CCC(=O)N1C2C3N(C(=O)CC)C1C1N(C(=O)CC)C(C(N1C(=O)CC)N3C(=O)CC)N2C(=O)CC | inactive: -0.254%
O=C(NC1CCS(=O)(=O)C1)NP(=S)(Oc1ccccc1)Oc1ccccc1 (stereo unspecified) | inactive: 0.136%
CCNC(=S)/N=C(\N)N[N+](=O)[O-] | inactive: 2.32%
c1ccc(-c2nn[nH]n2)c(-c2nn[nH]n2)c1 | inactive: -1.48%
Cc1ccc(NP(=O)(Oc2cccc(C)c2)Oc2cccc(C)c2)nc1 | inactive: 2.69%
CCOC(=O)NC(Sc1ccccc1)C(Cl)(Cl)Cl (stereo unspecified) | inactive: 3.78%

Source: PubChem BioAssay AID463254 (National Center for Advancing Translational Sciences (NCATS), 2010)
